Patent US9023876B2, “Compounds and methods for regulating integrins” (Adhaere Pharmaceuticals, Inc., priority 2010, dated 2015)

Legend:
Fischer 344 rats = assay: Balloon induced arterial injury in rats
Excerpt: All surgeries were under isoflurane anaesthesia (Baxter, Ill., USA). Balloon injury in the right iliac artery was inflicted with a 2F Fogarty catheter (Baxter Corp., Irvine, Calif., USA) adapted to a custom angiographic kit (Boston Scientific, Scimed). An aortotomy in the abdominal aorta was made to insert a 2F Fogarty embolectomy catheter to the level of the right iliac artery. The balloon was inflated to 1.5-1.6 atmospheres and retracted to the arteriotomy site three times. The aortic excision was repaired with 8.0 sutures. The abdominal cavity was closed by planes using interrupted suture pattern. Arterial specimens were collected 3-30 days after injury and fixed in 4% formalin-PBS (Sigma-Aldrich, St. Louis, Mo.) for 5 min and analyzed by histology and immunostaining
Elastica van Gieson staining was used for histochemical analyses to evaluate neointima formation. Morphometric analyses was performed in a blinded fashion using NIH ImageJ. Immunostaining with anti-rat CD68 (1:50, AbD Serotec) for the detection of macrophages in the tissue.
Leukocyte recruitment precedes neointimal thickening and restenosis following percutaneous transluminal coronary angioplasty (PTCA). Denudation of the endothelial cell lining at the site of mechanical vascular injury leads to the deposition of fibrin and platelets, where selective binding between the platelet cell surface receptor GP Ibα and the integrin CD11b/CD18 expressed on the surface of leukocytes mediates the recruitment of leukocytes. Indeed, in the experimental models of mechanical vascular injury, antibody-mediated CD11b/CD18 blockade or its absence (CD11b^−/−) decreases intimal thickening after angioplasty or stent implantation. To investigate the effects of pharmacologically activating CD11b/CD18 in vivo on this injury, we tested our agonists in an arterial balloon injury model in rats. We administered leukadherins LA1, LA3 or vehicle (DMSO) to Fisher male rats 30 min prior to injury and continued injections every other day for three weeks. […]

integrin CD11b/CD18 = integrin CD11b/CD18 (Homo sapiens, UniProt P11215); assay: K562 cell adhesion assay, K562 CD11b/CD18 cells on immobilized fibrinogen (Fg); conditions: read-out: EC50 (effective concentration for 50% increase in adhesion), CD11b/CD18 dependent cell adhesion to Fg
Method: Cell adhesion assays with immobilized ligands were performed as previously described. Assays with all different K562 cell lines (K562, K562 CD11b/CD18 and K562 E320A) were performed in an identical fashion. Briefly, 384-well Highbind microtiter plates were coated with a 30 μL solution of ligand in Phosphate Buffered Saline, pH 7.4 containing 1 mM each of Ca^2+ and Mg^2+ ions (PBS^++) overnight at 4° C. Ligand Fg was coated at a concentration of […] and iC3b at […]. Heterodimer specific mAb IB4 (ascites) was coated at a 1:100 dilution. Subsequently, the non-specific sites in the wells were blocked by incubation with 1% non-fat milk in Tris Buffered Saline (TBS), pH 7.4, at room temperature for 1 h, except for the neutrophil assay, where the wells were blocked with TBS containing 1% gelatin. Next, the wells were washed three times with TBS. K562 cells were suspended in the assay buffer (TBS containing 1 mM each of Ca^2+ and Mg^2+ ions (TBS^++)) and were transferred to the ligand-coated wells (30,000 cells/well). Stock solution of the leukadherin family of small molecule agonists was prepared by dissolving the compounds in DMSO at a concentration of 2-10 mM. Final concentration of DMSO in the assay was approximately 1%. […] Cells remaining adherent were fixed using formaldehyde and were quantitated using imaging microscopy, as previously described. […]

[1] = target: CD11b A-domain (αA-domain) (Homo sapiens, UniProt P11215); assay: αA-domain ligand-binding assay (GST-αA-domain to immobilized Fg); conditions: to level of activating mutant I316G
Excerpt: Purification of recombinant CD11b A-Domain (.Alpha.A-Domain). Recombinant human aA-domains were constructed and purified according to published protocols. […] The aA-domain in its active conformation was generated by replacing Ile^316 with Gly (1316G [55]) using forward primer 5′-[…]-3′ (SEQ ID NO: 3) and reverse primer 5′-[…]-3′ (SEQ ID NO: 4). The insert was digested with BamHI and SmaI and ligated into pGEX-2T vector also digested with BamHI and SmaI. All constructs were confirmed by direct DNA sequencing. All recombinant proteins were expressed as glutathione S-transferase (GST) fusion proteins in Escherichia coli and purified by affinity chromatography (Glutathione-beads, Sigma) following manufacturer's instructions. Purified protein preparations were dialyzed against 20 mm Tris-HCl, pH 7.5, 150 mm NaCl (Tris-buffered saline) and subsequently concentrated using Amicon-10 columns (Millipore) and stored at −80° C. […]
Maxisorp 96-well plates were coated with Fg (1 μg/well) in 10 mM PBS, pH 7.4 overnight and blocked with 1% bovine serum albumin in PBS. […] Subsequently, the amount of bound protein was determined by incubating with anti-GST antibody conjugated to horseradish peroxidase (GE, Piscataway, N.J.) (1:2000 dilution) for 1 hr. […] Absorbance was read using Spectromax M5 spectrophotometer (Molecular Devices, Sunnyvale, Calif.). […]

SMILES	neointima to media ratio (Fischer 344 rats; rat arteries 21 days after balloon injury, vehicle 0.23±0.01)	number of medial macrophages (CD68) (Fischer 344 rats; rat arteries three days post-injury, vehicle 42.2±6.7)	EC50 (integrin CD11b/CD18)	binding of the WT αA to the immobilized ligand [1]	effect on neointimal thickening (Fischer 344 rats; rat balloon injury, result in words)
CCOC(=O)CN1C(=O)SC(=Cc2ccc(-c3ccc(Cl)cc3Cl)o2)C1=O	0.14±0.01	6.9±1.3	14 µM	–	–
O=C(O)c1ccc(-c2ccc(C=C3SC(=O)N(c4ccccc4)C3=O)o2)cc1	–	–	12 µM	increased binding	no effect
